# AlphaSeq binding of Ab-95 light chain variants to a spike HR2 peptide

Source: Engelhart et al. 2022 (doi:10.1038/s41597-022-01779-4), MIT Lincoln Laboratory and A-Alpha Bio; data file from the FLAb repository.

Binding partner: SARS-CoV-2 spike HR2 peptide, sequence PDVDLGDISGINAS.

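The parent was found by panning a naive human phage display library on the peptide. Library AAYL52 holds single substitutions and randomly drawn double and triple substitutions in the CDRs. The assay is AlphaSeq: two haploid yeast populations carry antibody and antigen on their surface. Pairs that bind mate more often; barcode pairs of the diploids are counted by sequencing. A regression on co-assayed BCL2-family reference pairs converts the normalised counts of each replicate to an apparent Kd. Mating was done three times.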

Each scFv is VH, a (GGGGS)3 linker, VL, as in the parent Ab-95, and differs from it in the CDRs of the light chain only.
VH: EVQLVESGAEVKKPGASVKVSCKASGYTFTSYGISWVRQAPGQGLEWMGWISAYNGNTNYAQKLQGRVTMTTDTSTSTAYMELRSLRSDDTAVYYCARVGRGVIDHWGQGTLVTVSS
VL: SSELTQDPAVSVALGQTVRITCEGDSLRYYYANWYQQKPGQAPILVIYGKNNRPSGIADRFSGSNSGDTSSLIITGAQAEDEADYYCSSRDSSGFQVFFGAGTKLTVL

Variants are written as CDR1, CDR2 and CDR3 of the light chain (limits as in the source). Parent: EGDSLRYYYAN, GKNNRPS, SSRDSSGFQVF.
Numbers give log10(Kd / nM), so 0 is 1 nM and 3 is 1 µM. Smaller is tighter.
"nd" marks a missing value. The strain was present, yet no cells mated with the target were sequenced in that replicate, which points to weak or no binding.
As a blank, each scFv also met three strains without target: over library AAYL52, 28% of these pairings were detected, typically at 3.91 and seldom below 2.90. The control count says in how many pairings with the empty strains this scFv gave a signal, with their mean in brackets.

CDR-L1 | CDR-L2 | CDR-L3 | log10 Kd, replicates | control signals
EGDSLWYYYAN | GYNNRPS | SSRDSSGFQVF | 3.62 / 3.34 / nd | 3 of 9 (4.14)
EGDELRMYYAN | GKNNRPI | SSRDSSGFQVF | 4.12 / 3.97 / 2.77 | 3 of 9 (4.18)
EGDSLRYYYAN | GKWNRPS | LSRDSEGFQVF | 3.85 / 4.51 / nd | 4 of 9 (4.52)
EGDSLSYYYAN | GKNNRPS | ESRDSSGFQVF | 4.62 / 4.04 / 3.55 | 2 of 9 (3.74)
EMESLRYYYAN | GKNIRPS | SSRDSSGFQVF | 4.22 / 4.89 / nd | 1 of 9 (3.52)
EGDGCRYYYAN | GKNNRPS | SSRDSNGFQVF | nd / nd / nd | 2 of 9 (4.09)
EGRSERYYYAN | GKWNRPS | SSRDSSGFQVF | 3.95 / nd / nd | 1 of 9 (5.47)
EGDSFRYYYAN | GKNNRPK | SSEDSSGFQVF | 3.26 / 5.07 / nd | 1 of 9 (3.39)
EGDSLRYYYAN | GKNNRPS | SYRASTGFQVF | 2.70 / 2.46 / 2.47 | 4 of 9 (3.56)
EPDSLRYYYAN | GKNNRPS | SSGDISGFQVF | 3.92 / 3.70 / 4.37 | 6 of 9 (3.93)
EGQSLRYYYAN | GKNARPS | SSGDSSGFQVF | 3.78 / 3.88 / 3.39 | 3 of 9 (3.98)
EGDSGRYYYAN | SKNNRSS | SSRDSSGFQVF | nd / 5.70 / nd | 2 of 9 (3.36)
EGNSLRYYYAN | CVNNRPS | SSRDSSGFQVF | nd / nd / 4.19 | 1 of 9 (3.14)
EGDSLRYYYAN | GKNNRPP | SSTQSSGFQVF | 3.68 / 5.88 / nd | 3 of 9 (3.89)
RGVSLRYLYAN | GKNNRPS | SSRDSSGFQVF | 3.28 / 3.55 / 2.74 | 2 of 9 (3.64)
ELSSQRYYYAN | GKNNRPS | SSRDSSGFQVF | 2.70 / 2.63 / 2.29 | 4 of 9 (3.87)
ESDSLRYYYAN | GKNNRPS | SSRDSSGFQVR | 2.77 / 2.83 / 3.18 | 3 of 9 (3.75)
YGMSLRYYYAN | GKNNRPS | SSRDSSGFQYF | 3.94 / nd / 4.15 | 2 of 9 (3.82)
EGDSLRYYYAN | WKNNRPS | SSRDSSIFWVF | nd / 5.32 / nd | 2 of 9 (3.18)
EQDSLRYYYAN | VKNNRPS | SSRDSSGFHVF | 5.72 / nd / nd | 5 of 9 (3.98)
EGDSLRYYYLI | GKNNRPS | SSRDSSGFQVL | nd / nd / nd | 3 of 9 (4.04)
EGDSLRYYYAN | GCNNRPS | SSRDSSGFIVM | 3.13 / 5.04 / nd | 5 of 9 (3.49)
EGDSLRYYYAN | GKNNRES | MSRDSEGFQVF | 2.98 / 2.44 / 3.39 | 0 of 9
ELDSLRYRYAN | VKNNRPS | SSRDSSGFQVF | 4.96 / nd / 4.37 | 1 of 9 (3.90)
EGDSLRYYYAN | LKNNRPS | SSRDYDGFQVF | nd / nd / nd | 2 of 9 (3.63)
EGDSLVYYYAN | GKNNRQS | SSRDSSGFHVF | 3.40 / nd / nd | 1 of 9 (3.16)
EGMSLRYMYAN | GKNNRPS | LSRDSSGFQVF | 3.21 / 4.62 / 4.52 | 4 of 9 (4.55)
EGDSLRYYYAN | GKNNRPS | SYRASSIFQVF | 3.87 / 3.77 / 2.28 | 1 of 9 (3.41)
ENDSLRYYYAT | GKNNRPS | SSRDSSGEQVF | 5.00 / nd / nd | 3 of 9 (3.81)
EGDLLRYYYAN | GKNNRPS | SSRDSSGSQVF | 4.53 / 4.66 / nd | 3 of 9 (4.13)
EGDSVVHYYAN | GKNNRPS | SSRDSSGFQVF | nd / 5.25 / 4.83 | 2 of 9 (4.47)
EHDSLCYYYAN | GKNNMPS | SSRDSSGFQVF | 4.09 / nd / nd | 3 of 9 (4.81)
EGDSLRYYYAN | GKNNRPS | GFRDSIGFQVF | 2.99 / 3.07 / 2.49 | 2 of 9 (3.40)
EGDSLRYYEAN | GKNNRPS | SSRDSSGFQWF | nd / 4.27 / nd | 1 of 9 (3.26)
EFDSLRYYYAN | GKNNRPS | SSRESSGFQVF | 3.25 / 4.20 / 3.50 | 4 of 9 (3.57)
EPDSLRYYYAN | MKNNRPS | SSRDSSGFAVF | 5.41 / nd / nd | 3 of 9 (4.56)
EGDSLHYYYAN | GKNNRPS | SSKKSSGFQVF | 2.95 / 2.84 / 4.41 | 6 of 9 (4.18)

The first 3 variants above that were never detected:

| CDR-L1 | CDR-L2 | CDR-L3 | log10 Kd, replicates | control signals |
|---|---|---|---|---|
| EGDGCRYYYAN | GKNNRPS | SSRDSNGFQVF | nd / nd / nd | 2 of 9 (4.09) |
| EGDSLRYYYLI | GKNNRPS | SSRDSSGFQVL | nd / nd / nd | 3 of 9 (4.04) |
| EGDSLRYYYAN | LKNNRPS | SSRDYDGFQVF | nd / nd / nd | 2 of 9 (3.63) |